By UniProt entry, the sequences of proteins in these tests, tags left out.
UniProt P41145, whole entry: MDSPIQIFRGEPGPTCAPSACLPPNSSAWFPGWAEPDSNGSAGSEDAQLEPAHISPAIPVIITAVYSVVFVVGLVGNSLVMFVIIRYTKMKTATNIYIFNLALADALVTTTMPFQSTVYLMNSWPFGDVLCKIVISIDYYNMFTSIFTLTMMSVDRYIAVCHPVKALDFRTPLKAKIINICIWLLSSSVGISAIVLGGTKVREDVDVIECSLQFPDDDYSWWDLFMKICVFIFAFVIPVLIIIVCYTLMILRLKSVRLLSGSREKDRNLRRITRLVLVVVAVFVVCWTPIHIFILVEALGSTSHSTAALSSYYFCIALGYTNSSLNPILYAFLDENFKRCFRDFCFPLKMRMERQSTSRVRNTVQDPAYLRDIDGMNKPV
UniProt P35372, whole entry: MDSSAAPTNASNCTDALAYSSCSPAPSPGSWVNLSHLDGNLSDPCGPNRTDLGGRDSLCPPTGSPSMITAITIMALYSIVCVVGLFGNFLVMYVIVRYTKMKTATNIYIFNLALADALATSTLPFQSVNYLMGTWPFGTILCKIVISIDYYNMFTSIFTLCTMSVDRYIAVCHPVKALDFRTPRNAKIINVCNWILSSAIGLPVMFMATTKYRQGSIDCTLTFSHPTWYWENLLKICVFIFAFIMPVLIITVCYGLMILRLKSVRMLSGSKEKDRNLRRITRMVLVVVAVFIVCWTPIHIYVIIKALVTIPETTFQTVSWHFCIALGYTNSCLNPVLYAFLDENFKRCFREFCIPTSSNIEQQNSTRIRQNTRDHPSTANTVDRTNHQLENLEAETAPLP
UniProt P41143, whole entry: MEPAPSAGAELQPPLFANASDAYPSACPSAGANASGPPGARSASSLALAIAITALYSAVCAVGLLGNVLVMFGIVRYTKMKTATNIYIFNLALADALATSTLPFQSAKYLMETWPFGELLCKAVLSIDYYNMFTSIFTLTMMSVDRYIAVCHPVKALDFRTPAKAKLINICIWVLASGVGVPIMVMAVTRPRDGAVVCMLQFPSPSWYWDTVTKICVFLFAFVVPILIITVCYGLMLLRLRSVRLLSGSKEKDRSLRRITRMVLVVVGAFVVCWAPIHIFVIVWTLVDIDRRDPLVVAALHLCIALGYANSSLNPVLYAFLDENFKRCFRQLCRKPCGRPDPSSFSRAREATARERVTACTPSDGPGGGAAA
UniProt P41146, whole entry: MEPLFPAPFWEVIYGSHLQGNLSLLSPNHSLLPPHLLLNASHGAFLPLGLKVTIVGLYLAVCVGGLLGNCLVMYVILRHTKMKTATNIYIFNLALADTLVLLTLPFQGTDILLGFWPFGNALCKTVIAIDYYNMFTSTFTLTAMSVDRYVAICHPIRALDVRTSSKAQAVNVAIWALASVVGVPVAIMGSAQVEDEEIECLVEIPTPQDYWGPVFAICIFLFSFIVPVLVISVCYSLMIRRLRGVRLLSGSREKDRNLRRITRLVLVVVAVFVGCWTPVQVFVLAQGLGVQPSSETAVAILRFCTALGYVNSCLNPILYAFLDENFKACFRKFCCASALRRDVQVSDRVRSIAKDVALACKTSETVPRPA

In patent publication US8530494B2 (priority 2008, dated 2013):

Columns and labels:
kappa opioid receptor = kappa opioid receptor (Homo sapiens (Human), UniProt P41145); experiment: κ-opioid receptor functional [35S]GTPγS binding assay; settings: for EC50: read-out: GTPγS κ EC50; for GTPγS κ Emax: relative to U69,593
μ-opioid receptor = μ-opioid receptor (Homo sapiens (Human), UniProt P35372); experiment: μ-opioid receptor [35S]GTPγS functional assay; settings: for EC50: read-out: GTPγS μ EC50; for GTPγS μ Emax: relative to DAMGO
delta opioid receptor = delta opioid receptor (Homo sapiens (Human), UniProt P41143); experiment: δ-opioid receptor functional [35S]GTPγS binding assay; settings: for EC50: read-out: GTPγS δ EC50; for GTPγS δ Emax: relative to met-enkephalin
[1] = target: T1, human opioid receptor-like (ORL-1) (Homo sapiens (Human), UniProt P41146); experiment: ORL-1 receptor radioligand binding assay ([3H]-nociceptin); settings: for Ki: read-out: Ki ORL-1
[2] = target: T1, human opioid receptor-like (ORL-1); experiment: ORL-1 receptor functional [35S]GTPγS binding assay; settings: for EC50: read-out: GTPγS ORL1 EC50; for GTPγS ORL1 Emax: relative to nociceptin
gastric motility = experiment: Assessment of gastric motility, charcoal meal transit; settings: oral gavage

| Structure (SMILES) | EC50 (kappa opioid receptor) [nM] | GTPγS κ Emax (kappa opioid receptor) [%] | GTPγS μ Emax (μ-opioid receptor) [%] | EC50 (delta opioid receptor) [µM] | GTPγS δ Emax (delta opioid receptor) [%] | also measured |
| --- | --- | --- | --- | --- | --- | --- |
| COc1ccc2c3c1O[C@H]1[C@@]4(OC)CC[C@@]5(C[C@@H]4COCc4ccccc4C)[C@@H](C2)N(CC2CC2)CC[C@]315 | 1.28 | 88 | 53 | – | – | EC50 (μ-opioid receptor): 0.0105 µM |
| COc1ccc2c3c1O[C@H]1[C@@]4(OC)CC[C@@]5(C[C@@H]4COCc4ccc(OC(F)(F)F)cc4)[C@@H](C2)N(C)CC[C@]315 | 167 | 46 | – | – | – | – |
| COc1ccc2c3c1O[C@H]1[C@@]4(OC)CC[C@@]5(C[C@@H]4COCC4CCCCC4)[C@@H](C2)N(CC2CC2)CC[C@]315 | 0.24 | 97.33 | 28.67 | 0.0465 | 79 | EC50 (μ-opioid receptor): 0.00897 µM |
| C=CCOC[C@H]1C[C@@]23CC[C@]1(OC)[C@@H]1Oc4c(OC)ccc5c4[C@@]12CCN(CC1CC1)[C@@H]3C5 | 21 | 107 | 23 | 0.242 | 67 | EC50 (μ-opioid receptor): 1.49 µM; Ki ORL-1 [1]: inactive |
| C#CCOCC1CC23CCC1(OC)C1Oc4c(OC)ccc5c4[C@@]12CCN(C)[C@@H]3C5 (some centres unmarked) | 194 | 66 | – | 1.57 | 82 | Ki ORL-1 [1]: inactive |
| COc1ccc2c3c1O[C@H]1[C@@]4(OC)CC[C@@]5(C[C@@H]4COCc4ccc(C(C)(C)C)cc4)[C@@H](C2)N(C)CC[C@]315 | 473 | 39.00 | – | 1.01 | 37 | – |
| COc1ccc2c3c1O[C@H]1[C@@]4(OC)CC[C@@]5(C[C@@H]4COCc4ccccc4)[C@@H](C2)N(CC2CC2)CC[C@]315 | 0.18 | 117 | 27 | 0.0072 | 69 | EC50 (μ-opioid receptor): 0.0146 µM; EC50 [2]: 2720 nM; GTPγS ORL1 Emax [2]: 42% |
| COc1ccc2c3c1O[C@H]1[C@@]4(OC)CC[C@@]5(C[C@@H]4COCc4cccc(C)c4)[C@@H](C2)N(C)CC[C@]315 | 51.1 | 75.00 | – | 0.148 | 77 | – |
| COc1ccc2c3c1O[C@H]1[C@@]4(OC)CC[C@@]5(C[C@@H]4COCc4ccccc4C)[C@@H](C2)N(C)CC[C@]315 | 9.58 | 98 | – | – | – | – |
| COc1cccc(COC[C@H]2C[C@@]34CC[C@]2(OC)[C@@H]2Oc5c(OC)ccc6c5[C@@]23CCN(C)[C@@H]4C6)c1 | 50 | 98 | – | – | – | – |
| COc1ccc2c3c1O[C@H]1[C@@]4(OC)CC[C@@]5(C[C@@H]4COCc4ccc(C(C)(C)C)cc4)[C@@H](C2)N(CC2CC2)CC[C@]315 | 194 | 36 | 0 | – | – | EC50 (μ-opioid receptor; μM): > 20 µM |
| COc1ccc2c3c1O[C@H]1[C@@]4(OC)CC[C@@]5(C[C@@H]4COCC4CCCCC4)[C@@H](C2)N(C)CC[C@]315 | 0.61 | 87.67 | – | 0.0463 | 83 | – |
| COc1ccc2c3c1O[C@H]1[C@@]4(OC)CC[C@@]5(C[C@@H]4COCc4cccc(C)c4)[C@@H](C2)N(CC2CC2)CC[C@]315 | 2.32 | 81 | 31 | – | – | EC50 (μ-opioid receptor): 0.0174 µM |
| COc1ccc2c3c1O[C@H]1[C@@]4(OC)CC[C@@]5(C[C@@H]4COCc4ccncc4)[C@@H](C2)N(C)CC[C@]315 | 222 | 79 | – | – | – | – |
| COc1ccc2c3c1O[C@H]1[C@@]4(OC)CC[C@@]5(C[C@@H]4COCc4ccc(Cl)cc4)[C@@H](C2)N(C)CC[C@]315 | 1.53 | 42.50 | – | 1.05 | 53 | – |
| COc1ccc2c3c1O[C@H]1[C@@]4(OC)CC[C@@]5(C[C@@H]4COCc4ccc6ccccc6c4)[C@@H](C2)N(CC2CC2)CC[C@]315 | 35.1 | 68 | 0 | – | – | EC50 (μ-opioid receptor; μM): > 20 µM |
| COc1ccc2c3c1O[C@H]1[C@@]4(OC)CC[C@@]5(C[C@@H]4COCc4ccc(Cl)c(Cl)c4)[C@@H](C2)N(C)CC[C@]315 | 34.7 | 73.50 | – | 0.283 | 66 | Ki [1]: 1.3 µM |
| COc1ccc2c3c1O[C@H]1[C@@]4(OC)CC[C@@]5(C[C@@H]4COCc4cccc6ccccc46)[C@@H](C2)N(C)CC[C@]315 | 39.1 | 100 | – | – | – | – |
| COc1ccc2c3c1O[C@H]1[C@@]4(OC)CC[C@@]5(C[C@@H]4COCc4ccc6ccccc6c4)[C@@H](C2)N(C)CC[C@]315 | 442 | 75.67 | – | 0.603 | 81 | Ki ([1]; μM): > 20 µM |
| COc1ccc2c3c1O[C@H]1[C@@]4(OC)CC[C@@]5(C[C@@H]4COCc4ccc(Cl)c(Cl)c4)[C@@H](C2)N(CC2CC2)CC[C@]315 | 5.27 | 69.50 | −1.00 | 0.112 | 46 | EC50 (μ-opioid receptor; μM): > 20 µM; EC50 [2]: 3610 nM; GTPγS ORL1 Emax [2]: 23.67% |
| COc1ccc2c3c1O[C@H]1[C@@]4(OC)CC[C@@]5(C[C@@H]4COCc4ccc(C(F)(F)F)cc4)[C@@H](C2)N(CC2CC2)CC[C@]315 | 51.8 | 38.50 | −1.67 | – | 8 | EC50 (μ-opioid receptor; μM): > 20 µM; EC50 (delta opioid receptor; μM): > 20 µM |
| COc1ccc2c3c1O[C@H]1[C@@]4(OC)CC[C@@]5(C[C@@H]4COC/C=C/c4ccccc4)[C@@H](C2)N(CC2CC2)CC[C@]315 | 103 | 63 | 0 | – | – | EC50 (μ-opioid receptor; μM): > 20 µM |
| COc1ccc2c3c1O[C@H]1[C@@]4(OC)CC[C@@]5(C[C@@H]4COc4ccccc4)[C@@H](C2)N(C)CC[C@]315 | 442 | 75.67 | – | 0.603 | 81 | – |
| COc1ccc2c3c1O[C@H]1[C@@]4(OC)CC[C@@]5(C[C@@H]4COc4ccccc4)[C@@H](C2)N(CC2CC2)CC[C@]315 | 11.9 | 88.25 | 3.00 | 0.199 | 73 | EC50 (μ-opioid receptor; μM): > 20 µM |
| COc1ccc2c3c1OC1C4(OC)CCC5(CC4COCc4ccccc4)[C@@H](C2)N(C)CC[C@]315 (some centres unmarked) | 4.7 | 92 | – | 0.078 | 113 | GTPγS ORL1 Emax [2]: 46%; inhibition of gastric motility (charcoal meal transit) (gastric motility): dose-dependent inhibition of gastric motility |
| COc1ccc2c3c1O[C@H]1[C@@]4(OC)CC[C@@]5(C[C@@H]4COCc4ccc(-c6ccccc6)cc4)[C@@H](C2)N(CC2CC2)CC[C@]315 | 141 | 21.00 | 1.00 | – | – | EC50 (μ-opioid receptor; μM): > 20 µM; Ki ([1]; μM): > 20 µM |
| COc1ccc2c3c1O[C@H]1[C@@]4(OC)CC[C@@]5(C[C@@H]4COCC4CCC4)[C@@H](C2)N(C)CC[C@]315 | 49.3 | 92 | – | – | – | – |

Where two headings read alike, the source gives them in different places.
